# Values quoted from earlier work in patent publication US20070237810A1, “Biocidal fibrous and film materials comprising silver and chlorite ions” (published 2007).
# Details: solid state; stable below this temperature in the absence of acid
substance,measurement,value
silver chlorite,temperature above which it slowly disproportionates,above 85 °C
